Test [1] has as its target T1, Porcine pancreatic elastase (Calbiochem, Cat. 324682) (porcine, UniProt P00772 27-266).
T1 construct: Commercial enzyme; also called PPE
T1 sequence (looked up): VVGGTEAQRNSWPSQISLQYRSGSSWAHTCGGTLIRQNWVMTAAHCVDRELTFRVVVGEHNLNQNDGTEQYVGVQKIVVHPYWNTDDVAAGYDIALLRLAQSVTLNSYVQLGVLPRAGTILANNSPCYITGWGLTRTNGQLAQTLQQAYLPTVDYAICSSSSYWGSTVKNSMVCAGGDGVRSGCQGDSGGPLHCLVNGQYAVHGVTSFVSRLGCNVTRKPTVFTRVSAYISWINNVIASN
Put plainly: remaining elastase activity after 120, 300 and 600 s at equal molar ratio (20 nM each), AAA-pNA substrate, 25 C. As to the method:
(§1) Porcine pancreatic elastase (Calbiochem, Cat. 324682) and AAA-pNA (N-Succinyl-Ala-Ala-Ala-p-nitroanilide, Sigma, S4760) were used as an enzyme and a substrate, respectively, to measure the rate constants of the alpha-1 antitrypsin and variants thereof. More particularly, the porcine pancreatic elastase and the alpha-1 antitrypsin and variants thereof were mixed at the same molar ratio, and reacted at 25° C. for 120 seconds, 300 seconds, and 600 seconds. Thereafter, the AAA-pNA was added to the resulting reaction mixture, and measured for kinetics for 5 minutes at intervals of one minute. In the final reaction, the concentrations of the porcine pancreatic elastase and the alpha-1 antitrypsin and variants thereof were 20 nM, and the concentration of the AAA-pNA was 1 mM.
Because the reaction of the porcine pancreatic elastase with the alpha-1 antitrypsin and variants thereof was an irreversible secondary reaction (Levenspiel O. Chemical reaction engineering, 2nd edition. 1972, Wiley, New York), the rate constant was calculated by the equation: 1/R=kaCE0t+1 [R=Remaining PPE activity, ka=Rate constant (M⁻¹ s⁻¹), CE0=Initial concentration of AAT (M), and t=Reaction time (seconds)]. The association rate constant (ka) was calculated using the activities of porcine pancreatic elastase remaining at each reaction time.

The target of test [2] is T1, Porcine pancreatic elastase …. Put plainly: equilibrium constant Ka=[EI]/[E]f/[I]f from elastase activity with AAA-pNA substrate. As to the method: as §1
Also, the equilibrium constant of the alpha-1 antitrypsin and variants thereof was calculated using the following equation.

B1: Alpha-1 antitrypsin variant AT9N (glutamine at the 9th position substituted with asparagine), expressed in CHO-K1 cells (other)
chain: EDPQGDAANKTDTSHHDQDHPTFNKITPNLAEFAFSLYRQLAHQSNSTNIFFSPVSIATAFAMLSLGTKADTHDEILEGLNFNLTEIPEAQIHEGFQELLRTLNQPDSQLQLTTGNGLFLSEGLKLVDKFLEDVKKLYHSEAFTVNFGDTEEAKKQINDYVEKGTQGKIVDLVKELDRDTVFALVNYIFFKGKWERPFEVKDTEEEDFHVDQVTTVKVPMMKRLGMFNIQHCKKLSSWVLLMKYLGNATAIFFLPDEGKLQHLENELTHDIITKFLENEDRRSASLHLPKLSITGTYDLKSVLGQLGITKVFSNGADLSGVTEEAPLKLSKAVHKAVLTIDEKGTEAAGAMFLEAIPMSIPPEVKFNKPFVFLMIDQNTKSPLFMGKVVNPTQK
modifications: added N-glycosylation site at asparagine 9, besides asparagine 46, 83 and 247
notes: Written here as the M3 variant, since it is compared with T003; Positions count from the N-terminus of mature alpha-1 antitrypsin; also called Q9N
B1: the association rate constant (kon) (as a rule, the second-order rate constant of association) in test [1] was 600000 M⁻¹ s⁻¹. In addition, in test [2], the Ka came to 3.04e+09 M⁻¹.

Source of the values: patent US20140371160A1 (ALTEOGEN, published 2014).
